# Measured affinities in a library of Ab-14 light chain variants

The target is the same throughout: PDVDLGDISGINAS, from the HR2 region of SARS-CoV-2 spike.

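These sequences belong to a second round, designed from the earlier measurements on random variants of the parent. Group labels follow the data file (Ctrl: baseline library sampled from a position-specific scoring matrix, with some repeated check sequences; En: ensemble of fine-tuned language models; GP: Gaussian process model; HC: hill climbing; Gen: genetic algorithm; Gibbs: Gibbs sampling; a sequence that several methods proposed may carry one label only). The assay is AlphaSeq: two haploid yeast populations carry antibody and antigen on their surface. Pairs that bind mate more often; barcode pairs of the diploids are counted by sequencing. Scores were corrected for input abundance and mapped to Kd with protein pairs of known affinity run in the same pool. The assay was run in six technical replicates.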

Parent: Ab-14, a human scFv built as VH, a (GGGGS)3 linker, VL. Only the CDRs of the light chain vary.
VH: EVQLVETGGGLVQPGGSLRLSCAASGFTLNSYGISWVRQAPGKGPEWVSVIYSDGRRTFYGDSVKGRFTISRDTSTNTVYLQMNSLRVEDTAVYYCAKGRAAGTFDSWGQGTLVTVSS
VL: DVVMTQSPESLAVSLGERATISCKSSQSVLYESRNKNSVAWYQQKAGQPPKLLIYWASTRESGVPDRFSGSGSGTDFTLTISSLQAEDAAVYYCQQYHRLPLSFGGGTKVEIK

Each variant is given by its three light chain CDRs, as the data file delimits them; those of the parent are KSSQSVLYESRNKNSVA, WASTRES, QQYHRLPLS. Numbers give log10(Kd / nM), so 0 is 1 nM and 3 is 1 µM. Smaller is tighter. The mean shown is taken over the replicates in which the pair was detected. "not detected" marks a missing value. The strain was present, yet no cells mated with the target were sequenced in any replicate, which points to weak or no binding. The parent sequence was in this pool as ten entries: three were never detected, three once, and four in most replicates, with averages from 0.34 to 2.37. The authors averaged sequences with at least three values out of six and counted those with two or fewer as poor binders. Empty control strains, which show no peptide, gave a signal in 4% of pairings with all light chain designs; the median was 2.64 and 95% of these signals were weaker than 1.59. No background was subtracted. Values of this round are not directly comparable with the first-round values of the same sequences.

CDR-L1 | CDR-L2 | CDR-L3 | group | mean, log10 nM | detected
HLSQSQDYESRNKNSVA | NASQRLQ | QQYHRLPLS | GP_Gibbs | -0.18 | 6/6
KIERSTKGDRYFQYSIA | QGDIREK | QQYGQLPLT | En_Gibbs | 1.44 | 2/6
KVSQSHLYESRNKNSVA | NASQRES | QQYHRLPLS | GP_Gen | -0.06 | 6/6
SIRAVGCDWQRNHSNIA | DATQIED | QQYVMLPLS | En_Gibbs | 0.87 | 6/6
KIRQSTGYESRNKDSIA | DNSTRGR | QQYHRLPLS | En_HC | 1.93 | 6/6
MLSDVVKMGSRNTNSVA | DNSTRGS | QQYDRLPLS | En_HC | 3.15 | 5/6
MVSQLMLWGLHAKNSIA | EAQTRVN | QQYDRLPLF | En_Gen | 1.18 | 3/6
KSSQSVLYESRNKNSVA | WASTRES | QQYHRLPES | Ctrl | 4.20 | 1/6
KLSQSVLYQDRNKNSVA | NASQRES | QQYHRLPLS | GP_Gen | 0.13 | 6/6
KLTHVTFVLDRDKYSIA | DSERKME | QQYNRLPLT | En_Gibbs | 0.36 | 6/6
QLENVQSNDTILENNVA | HAEVSGR | QQYSQLPLI | En_Gibbs | 2.56 | 3/6
MISQLFNMGQFAINSVA | QASLRNE | QQYDRLPLA | En_Gen | 1.98 | 5/6
KLEQSDLYESRNKNSVA | NASTRES | QQYHRLPLS | GP_Gen | 0.77 | 6/6
TVGQVTMVESYNKDSVA | QATTRLE | QDYHRLPLS | En_HC | 0.31 | 6/6
KKSQSVLYESRNKNSVA | WASTRES | QKYHRLPLS | Ctrl | not detected | 0/6
KSSISYLYESSNKNSVA | AASTRES | QQYHRLPLS | GP_HC | 0.55 | 6/6
TIGQMFNGESRIRNSVA | QASTRES | QSYDRLPLS | En_HC | 1.14 | 6/6
KVQQSELYESRNKNSVA | EASTRES | QQYHRLPLS | GP_Gen | 0.72 | 6/6
KLSQSVEQLSRNKNSVA | HASQREV | QQYHRLPLS | GP_Gibbs | -0.11 | 6/6
KFPQSNGYETRNKNSVA | EASQREQ | QQYHRLPLS | GP_Gibbs | -0.19 | 6/6
KSSQSVEYESVNKNSVA | WASQRES | QQYHRLPLS | Ctrl | 1.07 | 6/6
KLSFSDLYESRNKNSVA | EASTRES | QQYHRLPLS | GP_Gen | -0.40 | 6/6
KSPQSWLYESRNKNSVA | GASFRES | QQYHRLPLS | GP_HC | -0.25 | 6/6
KVSEFMRGLMQRKDSIA | DNTTRGN | QQYDRLPLS | En_Gen | 2.72 | 2/6
MISQLYNMGQFAINSVA | QASLRCN | QQYDRLPLI | En_Gen | 1.37 | 6/6
KLYQSTAMTSRMKNNVA | DLNERGR | QQYFRLPLS | En_HC | 0.37 | 6/6
KLGGVTEYEMYNKNSVA | QMTTRES | QQYHRLPLS | En_HC | 0.80 | 6/6
KSSQSELYESRNKNSVA | NASQRES | QQYHRLPLS | GP_Gen | 0.13 | 6/6
MISQLYNMGQFAINSVA | QAEERYN | QQYDRLPLV | En_Gen | 1.18 | 6/6
ILSQMLWTAGNKHNSVA | QANYRES | QQYHRLPLS | En_HC | 1.69 | 1/6
AISQSVLYESRNQNAVA | EASTRCD | QQYHRLPLS | GP_Gibbs | -0.05 | 6/6

Continued, with the values leading:

mean, log10 nM | detected | CDR-L1 | CDR-L2 | CDR-L3 | group
2.72 | 5/6 | KSSQSVIYNSRNKNSVA | WASTRQS | QQYHRLPLS | Ctrl
-0.49 | 6/6 | KLSGSMLYESRNKNAVA | NASTRES | QQYHRLPLS | GP_Gen
0.50 | 6/6 | KLYQMMGYLSRNKNSIA | DMSRRES | QQYHRLPLS | En_HC
1.96 | 6/6 | KSSQSVLYESRNKNSVA | WASTRLS | QQYDRLPLS | Ctrl
0.07 | 6/6 | SVRHPFQGENGMKGSVA | NATIRDH | QQYFRLPLF | En_Gibbs
1.41 | 6/6 | KSSQSVLYEFRNKNSVA | GASTRES | QQYHRMPLS | Ctrl
0.25 | 6/6 | TVSQVEGMLSHNKNSVA | DMNTRGS | QQYDRLPLS | En_HC
0.65 | 6/6 | QLLMATMQETYHKNSVA | HAETRED | QSYHRLPLS | En_HC
1.24 | 5/6 | MVNMHDEGFKGHKDNIA | NAATKEG | QHYGRLPLS | En_Gibbs
1.58 | 6/6 | RMNKFMSEITEARNSIA | GAEHLAQ | QHYHRLPLS | En_Gibbs
3.66 | 1/6 | KSSQSVLYESRNKNSNA | WASVRES | QQYHRLPLS | Ctrl
0.22 | 6/6 | HQSGSVLYESRNKNSVA | NGSTREV | QQYHRLPLS | GP_HC
1.46 | 6/6 | KLASVTGTEKVRGNNVA | EMETRER | QQYNRLPLA | En_Gen
0.52 | 6/6 | MMSQSVLYEWRNKNSVA | AASKRES | QQYHRLPLS | Ctrl
0.28 | 6/6 | KQSQSVLYESRNKNSVA | EASTRSS | QQYHRLPLS | GP_HC
0.34 | 6/6 | KLMPFWEYESRNKNSVA | EASTRES | QQYHRLPLS | GP_Gibbs
0.17 | 6/6 | HVAMELAEEKNSYRNIA | DASMRLA | QQYVRLPLG | En_Gibbs
-0.20 | 6/6 | KVSQSVLYEWRNKNSVA | EASTRES | QQYHRLPLS | GP_Gen
-0.08 | 6/6 | FFALDQDSMGDAKNSIA | DRNTKAH | QQYSRLPLV | En_Gibbs
0.63 | 6/6 | KVSQSVLYESNNKNSVA | WASTRES | QQYHRLPLS | Ctrl
-0.38 | 6/6 | KLPQSWLYESRNKNNVA | NASTRES | QQYHRLPLS | GP_Gen
0.06 | 6/6 | KIGQQVTYESTNKNAIA | QMTTREA | QQYHRLPLS | En_HC
0.76 | 6/6 | QFHQGMIGDQRNMQSVA | NAQAAVP | QYYFRLPLT | En_Gibbs
0.67 | 6/6 | KSRQSVAYESENKNSVA | SASTRES | QQYHRLPLS | Ctrl
0.14 | 6/6 | KLSQWYWYESRNKNSVA | QASTREV | QQYHRLPLS | GP_Gibbs
not detected | 0/6 | KSSQSVLYESRNKHSVA | WAIIRES | QWYHRLPLS | Ctrl
-0.10 | 6/6 | KSSQSILYESRNGNSVA | DASTRES | QQYQRLPLS | Ctrl
1.63 | 6/6 | MLSQMWAIGSKVSNSVA | QASMRFN | QQYDRLPLI | En_Gen
2.17 | 6/6 | KISMSINMTFQASNNVA | EMATREK | QQYHRLPLS | En_Gen
-0.08 | 6/6 | HISDLIMVASRNKNSVA | DESTRPD | QQYHRLPLS | En_HC
-0.11 | 6/6 | KLQQWVLYEGRNKNSVA | QASQRSD | QQYHRLPLS | GP_Gibbs
0.75 | 6/6 | KLGYNTGTESFRKDNIA | DNDLRAR | QQYHRLPLS | En_Gen

A selection of 4 entries from above:

CDR-L1,CDR-L2,CDR-L3,group,"mean, log10 nM",detected
KQSQSVLYESRNKNSVA,EASTRSS,QQYHRLPLS,GP_HC,0.28,6/6
KSSQSELYESRNKNSVA,NASQRES,QQYHRLPLS,GP_Gen,0.13,6/6
SVRHPFQGENGMKGSVA,NATIRDH,QQYFRLPLF,En_Gibbs,0.07,6/6
HLSQSQDYESRNKNSVA,NASQRLQ,QQYHRLPLS,GP_Gibbs,-0.18,6/6

Data: MIT Lincoln Laboratory AlphaSeq set, Li et al. 2023, doi:10.1038/s41467-023-39022-2, as distributed in FLAb.